By UniProt entry, the sequences of proteins in these tests, tags left out. Where a name states a change or a piece, a line headed by the entry shows the natural chain unless it says otherwise.
UniProt P41146: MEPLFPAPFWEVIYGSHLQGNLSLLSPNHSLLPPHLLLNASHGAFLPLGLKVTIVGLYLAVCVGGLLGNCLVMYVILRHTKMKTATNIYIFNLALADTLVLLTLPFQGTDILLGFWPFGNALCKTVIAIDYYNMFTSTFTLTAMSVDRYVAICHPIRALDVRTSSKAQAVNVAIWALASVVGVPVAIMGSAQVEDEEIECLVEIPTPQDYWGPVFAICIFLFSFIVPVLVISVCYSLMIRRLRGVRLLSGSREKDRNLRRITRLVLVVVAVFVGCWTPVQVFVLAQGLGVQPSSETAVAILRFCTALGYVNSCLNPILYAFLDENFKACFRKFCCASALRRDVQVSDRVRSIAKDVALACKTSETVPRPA
UniProt P35372, whole entry, looked up: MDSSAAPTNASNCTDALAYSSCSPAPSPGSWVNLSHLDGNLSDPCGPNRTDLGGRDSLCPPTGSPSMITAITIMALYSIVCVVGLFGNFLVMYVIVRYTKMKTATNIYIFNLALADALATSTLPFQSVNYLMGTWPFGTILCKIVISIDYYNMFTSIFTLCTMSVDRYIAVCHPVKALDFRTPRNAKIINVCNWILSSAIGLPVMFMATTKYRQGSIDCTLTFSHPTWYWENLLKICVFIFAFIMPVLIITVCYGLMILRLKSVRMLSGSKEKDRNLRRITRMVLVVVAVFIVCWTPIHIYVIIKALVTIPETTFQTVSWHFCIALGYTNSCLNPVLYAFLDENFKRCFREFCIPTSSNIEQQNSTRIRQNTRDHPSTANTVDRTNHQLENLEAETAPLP
UniProt Q12809: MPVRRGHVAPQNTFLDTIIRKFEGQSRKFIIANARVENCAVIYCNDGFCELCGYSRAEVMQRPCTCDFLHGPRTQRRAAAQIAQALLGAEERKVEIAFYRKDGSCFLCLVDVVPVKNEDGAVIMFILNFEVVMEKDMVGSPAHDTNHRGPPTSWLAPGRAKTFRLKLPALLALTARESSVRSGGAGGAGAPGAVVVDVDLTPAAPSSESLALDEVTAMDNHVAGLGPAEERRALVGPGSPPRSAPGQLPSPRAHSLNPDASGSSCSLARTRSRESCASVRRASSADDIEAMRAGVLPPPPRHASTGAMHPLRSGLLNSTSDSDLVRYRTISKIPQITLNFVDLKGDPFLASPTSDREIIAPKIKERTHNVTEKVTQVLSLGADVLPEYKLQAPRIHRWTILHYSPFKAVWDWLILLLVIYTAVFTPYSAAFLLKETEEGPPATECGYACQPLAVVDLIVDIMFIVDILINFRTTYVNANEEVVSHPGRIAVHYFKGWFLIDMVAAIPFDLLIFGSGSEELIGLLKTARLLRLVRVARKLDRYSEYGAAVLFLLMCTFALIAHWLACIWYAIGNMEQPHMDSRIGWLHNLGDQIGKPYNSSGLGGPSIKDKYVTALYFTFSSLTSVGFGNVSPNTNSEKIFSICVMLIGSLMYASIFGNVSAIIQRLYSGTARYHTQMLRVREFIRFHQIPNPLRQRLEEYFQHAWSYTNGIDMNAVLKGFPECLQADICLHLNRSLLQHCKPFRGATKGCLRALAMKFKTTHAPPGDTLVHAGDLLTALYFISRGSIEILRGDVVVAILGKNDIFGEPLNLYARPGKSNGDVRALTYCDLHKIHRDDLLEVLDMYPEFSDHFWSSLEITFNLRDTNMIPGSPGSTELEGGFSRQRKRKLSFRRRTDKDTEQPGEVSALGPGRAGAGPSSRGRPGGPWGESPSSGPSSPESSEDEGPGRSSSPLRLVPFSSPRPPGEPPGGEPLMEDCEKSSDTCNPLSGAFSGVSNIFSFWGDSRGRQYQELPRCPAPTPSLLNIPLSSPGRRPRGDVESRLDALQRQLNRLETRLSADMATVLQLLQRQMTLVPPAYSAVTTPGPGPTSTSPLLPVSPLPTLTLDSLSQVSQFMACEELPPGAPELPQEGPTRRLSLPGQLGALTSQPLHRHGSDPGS

The first assay has as its target T1, Nociceptin receptor (Homo sapiens, UniProt P41146). Description: Agonist activity at human NOP receptor expressed in CHO cells assessed as inhibition of forskolin-stimulated cAMP production after 2 hrs.
Details: not given
(Changes in cAMP serve as a functional read-out for many G protein-coupled receptors.)
As a reminder, the IC50 is the point on the concentration scale where inhibition reaches its midpoint. `CNC(=O)CN1C(=O)OC2(CCN(C3CCC(C(C)C)CC3)CC2)c2ccccc21` (centres undefined): the IC50 worked out at 448 nM.

With `CNC(=O)CN1N=C(c2ccccc2)C2(CCN(C3CCC(C(C)(C)C)CC3)CC2)C1=O` (centres undefined), the IC50 was found to be 685 nM.

Turning to `CNC(=O)CN1C(=O)OC2(CCN(C3CCCCCCCCC3)CC2)c2ccccc21`, the IC50 was 103 nM.

Consider `CNC(=O)CN1N=C(c2ccccc2)C2(CCN(C3CCC4CCCCC4C3)CC2)C1=O` (centres undefined), for which the IC50 was 18 nM.

Turning to `CNC(=O)CN1N=C(c2ccccc2)C2(CCN(C3CCCCCCCCC3)CC2)C1=O`, the IC50 is 9.6 nM.

Regarding `CNC(=O)CN1N=C(c2ccccc2)C2(CCN(C3CCC(C(C)C)CC3)CC2)C1=O` (centres undefined), the IC50 is 53 nM.

The next assay deals with Mu-type opioid receptor (Homo sapiens, UniProt P35372). The assay can be described thus: Displacement of [3H]diprenorphine from human MOP receptor expressed in CHOK1 cells. As to conditions: cho-k1. (In general: In a radioligand displacement assay an active substance lowers the binding of a labelled ligand.)
In general, Ki refers to a measure of affinity in units of concentration, obtained from inhibition or displacement. A low value points to higher affinity. `CNC(=O)CN1C(=O)OC2(CCN(C3CCC(C(C)(C)C)CC3)CC2)c2ccccc21` (centres undefined) yielded a Ki of 113 nM.

For the molecule `CNC(=O)CN1C(=O)OC2(CCN(C3CCC(C(C)C)CC3)CC2)c2ccccc21` (centres undefined), affinity was put at a Ki of 108 nM.

`CNC(=O)CN1N=C(c2ccccc2)C2(CCN(C3CCC(C(C)(C)C)CC3)CC2)C1=O` (centres undefined) came in with a Ki of 7.3 nM.

Regarding `CNC(=O)CN1C(=O)OC2(CCN(C3CCCCCCCCC3)CC2)c2ccccc21`, the affinity, expressed as Ki, was 27 nM.

`CNC(=O)CN1N=C(c2ccccc2)C2(CCN(C3CCC4CCCCC4C3)CC2)C1=O` (centres undefined) had a Ki of 5.8 nM.

The molecule `CNC(=O)CN1N=C(c2ccccc2)C2(CCN(C3CCCCCCCCC3)CC2)C1=O` yielded a Ki of 1.1 nM.

Molecule `CNC(=O)CN1C(=O)OC2(CCN(C3CCCCCC3)CC2)c2ccccc21` had a Ki of 527 nM.

For `CNC(=O)CN1N=C(c2ccccc2)C2(CCN(C3CCC(C(C)C)CC3)CC2)C1=O` (centres undefined), the affinity, expressed as Ki, was 5.2 nM.

The next assay deals with T1, Nociceptin receptor. Description: Displacement of [3H]nociceptin from human NOP receptor expressed in CHO cells.
Details: not given
As to `CNC(=O)CN1C(=O)OC2(CCN(C3CCC(C(C)(C)C)CC3)CC2)c2ccccc21` (centres undefined), the affinity, expressed as Ki, was 295 nM.

In turn, `CNC(=O)CN1C(=O)OC2(CCN(C3CCC(C(C)C)CC3)CC2)c2ccccc21` (centres undefined) registered a Ki of 106 nM.

For the molecule `CNC(=O)CN1N=C(c2ccccc2)C2(CCN(C3CCC(C(C)(C)C)CC3)CC2)C1=O` (centres undefined), the Ki was determined as 44 nM.

For the molecule `CNC(=O)CN1C(=O)OC2(CCN(C3CCCCCCCCC3)CC2)c2ccccc21`, affinity was put at a Ki of 28 nM.

Regarding `CNC(=O)CN1N=C(c2ccccc2)C2(CCN(C3CCC4CCCCC4C3)CC2)C1=O` (centres undefined), the Ki amounted to 7.7 nM.

As for `CNC(=O)CN1N=C(c2ccccc2)C2(CCN(C3CCCCCC3)CC2)C1=O`, affinity was put at a Ki of 227 nM.

`CNC(=O)CN1N=C(c2ccccc2)C2(CCN(C3CCCCCCCCC3)CC2)C1=O` showed an inhibitory constant (Ki) of 2.3 nM.

For the molecule `CNC(=O)CN1C(=O)OC2(CCN(C3CCCCCC3)CC2)c2ccccc21`, the Ki was found to be 2150 nM.

In turn, `CNC(=O)CN1N=C(c2ccccc2)C2(CCN(C3CCC(C(C)C)CC3)CC2)C1=O` (centres undefined) showed a Ki of 11 nM.

In another assay the target is Voltage-gated inwardly rectifying potassium channel KCNH2 (Homo sapiens, UniProt Q12809). The assay can be described thus: Displacement of [3H]dofetilide from human ERG expressed in HEK293 cells. The format is cell-based.
Details: not given
`CNC(=O)Cn1c(=O)n(C2CCN([C@H]3CC[C@@H](C(C)C)CC3)CC2)c2ccccc21` gave a Ki of 4.2 µM.

The record behind these values is ChEMBL document CHEMBL1154346 (Bioorg Med Chem Lett, 2009).
